Apparent affinities of Ab-14 variants for a coronavirus HR2 peptide

Values reported by Engelhart et al. 2022, doi:10.1038/s41597-022-01779-4 (FLAb copy).

Target: peptide PDVDLGDISGINAS, taken from heptad repeat 2 (HR2) of SARS-CoV-2 spike.

Each scFv is VH, the linker GGGGSGGGGSGGGGS, VL, as in the parent Ab-14, and differs from it in the CDRs of the heavy chain only.
VH: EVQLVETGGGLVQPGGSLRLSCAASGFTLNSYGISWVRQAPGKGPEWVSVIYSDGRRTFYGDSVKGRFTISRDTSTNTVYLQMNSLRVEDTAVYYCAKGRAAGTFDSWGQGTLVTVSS
VL: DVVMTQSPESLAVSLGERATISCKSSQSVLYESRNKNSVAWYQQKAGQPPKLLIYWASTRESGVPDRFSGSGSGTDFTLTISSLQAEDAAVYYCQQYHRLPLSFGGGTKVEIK

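In library AAYL49, one, two or three CDR residues were substituted; doubles and triples were drawn at random. In AlphaSeq, yeast of one mating type display the scFv and yeast of the other type display the target. Mating (16 h, 30 °C) was followed by selection of diploids and sequencing of their barcodes. Read counts were normalised to the haploid input and turned into Kd by a linear fit to BCL2-family pairs of known affinity, for each replicate. Each pool was mated in three replicate cultures.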

The whole VH of each variant is written out. Scale: log10 of Kd in nM, estimated from mating counts; low values are strong binders. A mean of the replicates is given; it leaves out those without a signal. "n.d." means that the variant was in the library but no mating with the target was seen in that replicate; the authors take this as a sign of poor binding, and no number exists.

VH	replicates, log10 nM	mean, log10 nM	empty controls
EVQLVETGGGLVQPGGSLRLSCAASGFTCNSYGISWVRQAPGKGPEWVSVIYSNGRRTFYGYSVKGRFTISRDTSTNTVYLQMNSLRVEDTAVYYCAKGRAAGTFDSWGQGTLVTVSS	n.d. / n.d. / n.d.	n.d.	0 of 9
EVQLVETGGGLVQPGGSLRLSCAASGFTANSYGISWVRQAPGKGPEWVSVIYSDGRRTFYGDSVKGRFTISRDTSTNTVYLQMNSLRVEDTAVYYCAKGRAAGTFDSWGQGTLVTVSS	3.09 / 2.87 / 2.98	2.98	4 of 9 (4.07)
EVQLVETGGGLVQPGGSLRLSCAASGNTLNSYGISWVRQAPGKGPEWVSVIYSDFRRTFYGDFVKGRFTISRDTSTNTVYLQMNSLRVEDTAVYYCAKGRAAGTFDSWGQGTLVTVSS	4.11 / n.d. / 3.98	4.04	5 of 9 (4.70)
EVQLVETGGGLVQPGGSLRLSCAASGFTLNSYGISWVRQAPGKGPEWVSVIYSDGRRTFYFMSVKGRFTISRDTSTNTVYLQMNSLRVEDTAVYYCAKGRAAGTFDSWGQGTLVTVSS	n.d. / n.d. / n.d.	n.d.	0 of 9
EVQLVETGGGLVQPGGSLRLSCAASGFTLNSYGISWVRQAPGKGPEWVSVIYSDGRRTFYPDSEKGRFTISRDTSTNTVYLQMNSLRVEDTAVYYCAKGGAAGTFDSWGQGTLVTVSS	6.56 / 3.62 / n.d.	5.09	3 of 9 (4.34)
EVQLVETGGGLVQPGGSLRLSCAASGFTLQSYGISWVRQAPGKGPEWVSVIYSDERRTFYGDSVKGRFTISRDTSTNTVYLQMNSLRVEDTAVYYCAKGRAAGQFDSWGQGTLVTVSS	n.d. / n.d. / n.d.	n.d.	2 of 9 (2.66)
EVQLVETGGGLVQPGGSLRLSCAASGFTLNSYGISWVRQAPGKGPEWVSVIYSDGRRTFYGDSVKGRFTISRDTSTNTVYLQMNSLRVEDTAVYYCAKGRKAGTFHEWGQGTLVTVSS	n.d. / n.d. / n.d.	n.d.	1 of 9 (3.75)
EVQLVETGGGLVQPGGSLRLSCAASMFTLNSYGISWVRQAPGKGPEWVSVIYSDGRRTFYGDGAKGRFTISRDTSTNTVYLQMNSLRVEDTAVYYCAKGRAAGTFDSWGQGTLVTVSS	n.d. / 3.12 / n.d.	3.12	0 of 9
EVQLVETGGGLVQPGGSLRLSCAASGFTWNSYGISWVRQAPGKGPEWVSNIYSDGRRTFYGDSCKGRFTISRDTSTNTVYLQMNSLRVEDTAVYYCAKGRAAGTFDSWGQGTLVTVSS	n.d. / n.d. / n.d.	n.d.	0 of 9
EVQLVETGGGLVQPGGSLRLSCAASGFTLNSYGISWVRQAPGKGPEWVSTIYSTGRRTFYGDSVKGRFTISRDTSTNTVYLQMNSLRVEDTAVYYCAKHRAAGTFDSWGQGTLVTVSS	n.d. / n.d. / n.d.	n.d.	3 of 9 (4.41)
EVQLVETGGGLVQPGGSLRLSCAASGFTLNSYGISWVRQAPGKGPEWVSVICSDGRRTFYGDSVKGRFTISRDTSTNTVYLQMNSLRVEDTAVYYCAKGRAAGLRDSWGQGTLVTVSS	n.d. / n.d. / n.d.	n.d.	1 of 9 (2.80)
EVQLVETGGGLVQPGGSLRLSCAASGFTLNSYHISWVRQAPGKGPEWVSVIYSDDRRTFYGDSVTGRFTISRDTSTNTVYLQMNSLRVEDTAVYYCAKGRAAGTFDSWGQGTLVTVSS	4.67 / n.d. / 4.24	4.45	0 of 9
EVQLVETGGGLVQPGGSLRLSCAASGFTFNSWGISWVRQAPGKGPEWVSVIYSDGRRTFYGDSVKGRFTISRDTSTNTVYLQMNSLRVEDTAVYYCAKGRAFGTFDSWGQGTLVTVSS	n.d. / n.d. / n.d.	n.d.	1 of 9 (2.87)
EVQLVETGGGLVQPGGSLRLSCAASGFTLNSYEISWVRQAPGKGPEWVSVIYSDGRRTFYGDSVKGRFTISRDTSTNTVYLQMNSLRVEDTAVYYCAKGRVAGLFDSWGQGTLVTVSS	n.d. / n.d. / 4.89	4.89	2 of 9 (4.03)
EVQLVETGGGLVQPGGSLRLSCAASGFTLNDYGISWVRQAPGKGPEWVSVIYSDGRRTFYGVSVKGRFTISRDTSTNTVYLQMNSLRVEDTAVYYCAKGRRAGTFDSWGQGTLVTVSS	3.23 / 2.48 / 2.41	2.71	0 of 9
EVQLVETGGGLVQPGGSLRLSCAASGFTRNSYGIFWVRQAPGKGPEWVSVIYSDFRRTFYGDSVKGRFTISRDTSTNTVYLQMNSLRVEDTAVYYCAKGRAAGTFDSWGQGTLVTVSS	n.d. / n.d. / n.d.	n.d.	0 of 9

2 of these entries, quoted again:

VH,"replicates, log10 nM","mean, log10 nM",empty controls
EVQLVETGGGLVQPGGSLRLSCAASGFTLQSYGISWVRQAPGKGPEWVSVIYSDERRTFYGDSVKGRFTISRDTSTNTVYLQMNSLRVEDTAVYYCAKGRAAGQFDSWGQGTLVTVSS,n.d. / n.d. / n.d.,n.d.,2 of 9 (2.66)
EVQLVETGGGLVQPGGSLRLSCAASGFTLNSYGISWVRQAPGKGPEWVSVICSDGRRTFYGDSVKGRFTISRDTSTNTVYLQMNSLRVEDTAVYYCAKGRAAGLRDSWGQGTLVTVSS,n.d. / n.d. / n.d.,n.d.,1 of 9 (2.80)

Background: pairings of library AAYL49 with three empty control strains gave a value in 15% of cases (median 4.06, 5th percentile 2.83). Values in that range, when seen in few replicates, are hard to tell from nonspecific mating. The control count says in how many pairings with the empty strains this scFv gave a signal, with their mean in brackets.